Assay results as given in ChEMBL document CHEMBL1148711, “Naphthalen-1-yl-(4-pentyloxynaphthalen-1-yl)methanone: a potent, orally bioavailable human CB1/CB2 dual agonist with antihyperalgesic properties and restricted central nervous system penetration” (J Med Chem, 2007).

Chains of the proteins cited; added tags and fusions are not shown.
UniProt P21554, whole entry: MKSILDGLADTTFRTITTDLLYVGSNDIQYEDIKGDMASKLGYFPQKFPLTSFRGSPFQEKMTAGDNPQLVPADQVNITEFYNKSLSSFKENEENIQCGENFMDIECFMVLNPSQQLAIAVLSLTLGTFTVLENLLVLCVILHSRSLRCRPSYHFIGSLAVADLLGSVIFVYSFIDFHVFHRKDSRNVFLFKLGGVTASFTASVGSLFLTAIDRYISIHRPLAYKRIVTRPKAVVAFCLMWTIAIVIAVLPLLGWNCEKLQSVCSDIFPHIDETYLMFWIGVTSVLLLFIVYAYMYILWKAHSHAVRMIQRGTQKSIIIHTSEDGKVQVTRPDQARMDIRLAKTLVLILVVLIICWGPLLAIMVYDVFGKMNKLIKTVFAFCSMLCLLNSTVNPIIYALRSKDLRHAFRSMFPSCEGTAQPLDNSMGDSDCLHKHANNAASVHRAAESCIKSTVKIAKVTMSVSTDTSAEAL

Assays:
Cannabinoid receptor 1 [1] = molecular target: T1, Cannabinoid receptor 1 (Homo sapiens, UniProt P21554); assay: Agonist activity at human CB1 receptor expressed in HEK293 cells assessed as reversal of forskolin-evoked cAMP accumulation; format: functional, cell-based
Cannabinoid receptor 1 [2] = molecular target: T1, Cannabinoid receptor 1; assay: Displacement of [3H]CP-55940 from human CB1 receptor expressed in HEK293 cells; format: cell-based

CCCCCOc1ccc(C(=O)c2cccc3ccccc23)c2ccccc12
EC50 (Cannabinoid receptor 1 [1]): 6.1 nM | IC50 (Cannabinoid receptor 1 [2]): 15 nM
